Reference: paper PMC1500811, “Neofunctionalization in Vertebrates: The Example of Retinoic Acid Receptors” (PLoS Genetics, 2006)

Sequences of proteins named here, by UniProt entry; tags and fusion partners are left off. Residues count along the entry.
UniProt P18911, 156-458 limits assumed: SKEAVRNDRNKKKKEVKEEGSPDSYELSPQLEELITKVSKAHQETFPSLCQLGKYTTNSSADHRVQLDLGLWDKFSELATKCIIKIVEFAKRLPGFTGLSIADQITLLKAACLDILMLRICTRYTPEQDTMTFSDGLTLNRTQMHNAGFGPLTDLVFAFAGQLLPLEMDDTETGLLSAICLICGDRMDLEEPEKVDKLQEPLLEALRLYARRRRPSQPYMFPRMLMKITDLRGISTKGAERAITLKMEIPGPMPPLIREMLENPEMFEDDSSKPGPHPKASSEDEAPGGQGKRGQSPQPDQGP
UniProt P11416, 155-462 limits assumed: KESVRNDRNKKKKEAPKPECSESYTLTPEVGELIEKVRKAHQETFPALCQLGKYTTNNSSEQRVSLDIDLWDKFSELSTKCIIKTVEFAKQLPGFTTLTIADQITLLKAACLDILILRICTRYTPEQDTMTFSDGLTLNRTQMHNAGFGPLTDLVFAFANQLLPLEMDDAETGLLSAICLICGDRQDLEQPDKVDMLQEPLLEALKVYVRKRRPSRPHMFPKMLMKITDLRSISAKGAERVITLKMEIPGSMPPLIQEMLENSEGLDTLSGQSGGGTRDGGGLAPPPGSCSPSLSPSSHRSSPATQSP

Key:
mRARγ = target: T1, mRARγ (Mus musculus, UniProt P18911); assay: Gal4-RAR(LBD) luciferase transactivation in Cos-1 cells; assay type: cell-based; settings: agonist; one collective range given for all chordate RARs
T1 construct: gene Rarg; LBD fused to Gal4 residues 1-147; in vitro translated for proteolysis

mRARα = target: T2, mRARα (Mus musculus, UniProt P11416); assay: as above; assay type: cell-based; settings: agonist; one collective range given for all chordate RARs
T2 construct: gene Rara; LBD fused to Gal4 residues 1-147; in vitro translated for proteolysis

**Q.** How did the EC50 (mRARγ) turn out when `CC1=C(/C=C/C(C)=C/C=C/C(C)=C/C(=O)O)C(C)(C)CCC1` [ATRA] was run?
**A.** ~ 10^−9 to 10^−8 M

**Q.** And the EC50 (mRARα)?
**A.** ~ 10^−9 to 10^−8 M
